This is an account of results in patent US10106526B2, “Inhibitors of cyclin-dependent kinase 7 (CDK7)” (SYROS PHARMACEUTICALS, INC., priority 2014, dated 2018).

Protein sequences, listed by entry. Tags and fused reporters are not part of them.
UniProt P50613, whole entry: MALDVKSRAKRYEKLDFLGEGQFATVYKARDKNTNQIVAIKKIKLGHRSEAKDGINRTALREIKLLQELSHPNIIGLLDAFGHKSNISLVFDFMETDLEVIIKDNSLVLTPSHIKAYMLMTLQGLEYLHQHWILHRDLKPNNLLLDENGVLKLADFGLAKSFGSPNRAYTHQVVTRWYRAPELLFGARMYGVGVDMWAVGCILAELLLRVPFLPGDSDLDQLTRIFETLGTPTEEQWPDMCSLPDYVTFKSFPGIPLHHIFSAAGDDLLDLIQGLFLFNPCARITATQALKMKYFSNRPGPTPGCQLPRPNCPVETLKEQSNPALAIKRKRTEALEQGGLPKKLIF
UniProt P51946, whole entry partner: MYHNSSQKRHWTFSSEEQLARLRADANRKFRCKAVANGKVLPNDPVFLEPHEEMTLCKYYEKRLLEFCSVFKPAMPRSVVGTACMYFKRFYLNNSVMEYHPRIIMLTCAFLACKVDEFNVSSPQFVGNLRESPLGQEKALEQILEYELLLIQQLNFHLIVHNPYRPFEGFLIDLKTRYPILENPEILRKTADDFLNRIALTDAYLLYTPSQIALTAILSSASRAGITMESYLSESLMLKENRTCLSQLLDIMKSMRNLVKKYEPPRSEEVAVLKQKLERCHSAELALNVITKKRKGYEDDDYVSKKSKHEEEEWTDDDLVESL
UniProt P51948, whole entry partner: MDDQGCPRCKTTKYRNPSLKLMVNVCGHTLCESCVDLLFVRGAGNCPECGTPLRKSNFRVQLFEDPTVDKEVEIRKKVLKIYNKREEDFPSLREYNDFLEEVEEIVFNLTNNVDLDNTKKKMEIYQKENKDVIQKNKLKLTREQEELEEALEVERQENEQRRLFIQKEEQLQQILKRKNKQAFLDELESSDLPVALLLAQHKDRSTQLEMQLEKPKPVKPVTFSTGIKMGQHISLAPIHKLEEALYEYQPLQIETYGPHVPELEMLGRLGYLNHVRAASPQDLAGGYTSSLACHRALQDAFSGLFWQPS

For test [1], the target named is CDK7 (Homo sapiens, UniProt P50613). As to the kind of experiment: CDK7 kinase activity, Adapta kinase assay (Life Technologies). The note with it: read-out: CDK7 Inhibition (IC50); Adapta kinase assay at Life Technologies; 10 μM down to 0.514 nM, 3-fold serial dilutions.
Test [2] has as its system A673 cells. As to the kind of experiment: Inhibition of proliferation of A673 cells (CyQUANT, 72 hour). The note with it: read-out: A673 IC50, 72 hour proliferation. The procedure: A673 cells are a cell line derived from human muscle Ewing's sarcoma. Representative compounds of the invention were tested at different concentrations (from 4 μM to 126.4 pM; 0.5 log serial dilutions) for their ability to inhibit the proliferation of A673 cells. Known CDK inhibitors flavopiridol and triptolide were used as positive controls. Cells were grown in Dulbecco's Modified Eagle's Medium, +10% FBS+1 mM Sodium Pyruvate. The cells were cultured at 37° C. in a humidified chamber in the presence of 5% CO2. Proliferation assays were conducted over a 72 hour time period. CyQUANT® (Life Technologies, Chicago, Ill. USA) was used to assess the anti-proliferative effects of the compounds following manufacturer's directions and utilizing the reagents supplied with the CyQUANT® kit. In this table, “A” represents an IC50 of less than 500 nM; “B” an IC50 of between 500 nM and 5 μM; and “C” an IC50 of greater than 5 μM.

For test [3], the target named is CDK7/Cyclin H/MAT1 trimeric complex (Homo sapiens, UniProt P50613). As to the kind of experiment: CDK7 kinase assay, Caliper/LabChip EZ Reader (Biortus Biosciences). The note with it: read-out: CDK7 Inhibition (IC50), CDK7/Cyclin H/MAT1 10 nM, ATP 2 mM, FAM-CDK7tide 2 μM, 30 min incubation.
The test system of test [4] is Jurkat cells. As to the kind of experiment: Inhibition of proliferation of Jurkat cells (CellTiter-Glo, 72 hour). The settings on record: read-out: Jurkat IC50, 10 μM to 316 pM.

Where only a bound is given, the exact number is not on record here.

Regarding `C=CC(=O)N1CCC(CN[C@H]2CCC[C@@H](Nc3ncc(Cl)c(-c4cnn5ccccc45)n3)C2)CC1`, the IC50 was 100 to 1000 nM in test [1], < 500 nM in test [2] and < 100 nM in test [3].
On to `C=CC(=O)N1CCC(CN([C@H]2CCC[C@@H](Nc3ncc(Cl)c(-c4c[nH]c5ccccc45)n3)C2)S(C)(=O)=O)CC1`, for which the IC50 in test [1] is 100 to 1000 nM; in test [4], 500 to 5000 nM.
As for `CN(C)C/C=C/C(=O)N1CCC(CN(C)[C@H]2CCC[C@@H](Nc3ncc(Cl)c(-c4c[nH]c5ccccc45)n3)C2)CC1`, the IC50 in test [1] is < 100 nM; in test [2] it was < 500 nM; in test [4] it was < 500 nM.
Regarding `CN(C)C/C=C/C(=O)NC1CCN([C@@H]2CCC[C@@H](Nc3ncc(Cl)c(-c4c[nH]c5ccccc45)n3)C2)CC1`, the IC50 was < 100 nM in test [1], < 500 nM in test [2] and 500 to 5000 nM in test [4].
As to `C=CC(=O)N1CCC(CN(C)[C@H]2CCC[C@@H](Nc3ncc(C4CC4)c(-c4c[nH]c5ccccc45)n3)C2)CC1`, the IC50 is 100 to 1000 nM in test [1] and < 500 nM in test [4].
For the compound `C=CC(=O)N1CCC(CN(C(C)=O)[C@H]2CCC[C@@H](Nc3ncc(Cl)c(-c4c[nH]c5ccccc45)n3)C2)CC1`, the IC50 in test [1] is < 100 nM; in test [4] it was 500 to 5000 nM; in test [3], < 100 nM.
With `Cc1cnc(N[C@@H]2CCC[C@H](NC(=O)C3CCN(C(=O)/C=C/CN(C)C)CC3)C2)nc1-c1c[nH]c2ccccc12`, the IC50 in test [1] is 100 to 1000 nM; in test [2], < 500 nM; in test [4], 500 to 5000 nM.
Consider `C=CC(=O)NC1CCN([C@H]2CCC[C@@H](Nc3ncc(Cl)c(-c4c[nH]c5ccccc45)n3)C2)CC1`, for which the IC50 is 100 to 1000 nM in test [1], < 500 nM in test [2] and < 100 nM in test [3].
As for `CN(C)C/C=C/C(=O)N1CCC(C(=O)N2CCC(Nc3ncc(Cl)c(-c4c[nH]c5ccccc45)n3)CC2)CC1`, the IC50 was < 100 nM in test [1] and 500 to 5000 nM in test [4].
As for `CN(C)C/C=C/C(=O)N1CCCC(C(=O)N[C@H]2CC[C@@H](Nc3ncc(Cl)c(-c4c[nH]c5ccccc45)n3)CC2)C1` (some centres unmarked), the values for the IC50 in test [1], in test [2] and in test [4] were 100 to 1000 nM, < 500 nM and 500 to 5000 nM, respectively.
On to `C=CC(=O)N1CCC(CN[C@H]2CCC[C@@H](Nc3ncc(Cl)c(-c4c[nH]c5ccccc45)n3)C2)C1` (some centres unmarked), for which the IC50 was 100 to 1000 nM in test [1] and < 500 nM in test [2].
Turning to `C=CC(=O)N1CCC(CN(C(=O)OC)[C@H]2CCC[C@@H](Nc3ncc(Cl)c(-c4c[nH]c5ccccc45)n3)C2)CC1`, the IC50 in test [1] lay within 100 to 1000 nM; in test [4] it was 500 to 5000 nM.
Consider `O=C(/C=C/CN1CCOCC1)Nc1ccc(C(=O)N[C@H]2CCC[C@@H](Nc3ncc(Cl)c(-c4c[nH]c5ccccc45)n3)C2)nc1`, for which the values for the IC50 in test [1], in test [2] and in test [3] were < 100 nM, < 500 nM and 100 to 1000 nM, respectively.
For `CN(C)C/C=C/C(=O)N1CCC(C(=O)N[C@H]2CCC[C@@H](Nc3ncc(Cl)c(-c4c[nH]c5ccccc45)n3)C2)CC1`, the IC50 in test [1] and in test [3] was < 100 nM each time.
Regarding `CN(C)C/C=C/C(=O)NC1CCN([C@H]2CCC[C@@H](Nc3ncc(Cl)c(-c4c[nH]c5ccccc45)n3)C2)CC1`, the IC50 in test [1] was 100 to 1000 nM; in test [2], < 500 nM.
With `CN(C)C/C=C/C(=O)N1CCCC(C(=O)N[C@H]2CC[C@H](Nc3ncc(Cl)c(-c4c[nH]c5ccccc45)n3)CC2)C1` (some centres unmarked), the IC50 in test [1] is < 100 nM; in test [4], < 500 nM.
On to `C=CC(=O)N1CCCC(C(=O)N[C@H]2CC[C@@H](Nc3ncc(Cl)c(-c4c[nH]c5ccccc45)n3)CC2)C1` (some centres unmarked), for which the values for the IC50 in test [1] and in test [4] were 100 to 1000 nM and < 500 nM, respectively.
Regarding `C=CC(=O)N1CCC(CN(C(=O)C=C)[C@H]2CC[C@H](Nc3ncc(Cl)c(-c4c[nH]c5ccccc45)n3)CC2)CC1`, the IC50 in test [1] is > 1000 nM; in test [2] it was < 500 nM; in test [4], < 500 nM.
With `CN(C)C/C=C/C(=O)N1CCC(CNC2CCCC(Nc3ncc(Cl)c(-c4c[nH]c5ccccc45)n3)C2)CC1` (centres unmarked), the IC50 in test [1] was < 100 nM; in test [4], > 5000 nM.
In the case of `C=CC(=O)N1CCC(C(=O)N[C@H]2CC[C@@H](Nc3ncc(Cl)c(-c4c[nH]c5ccccc45)n3)CC2)CC1`, the IC50 was 100 to 1000 nM in test [1], < 500 nM in test [2] and < 500 nM in test [4].
`C=CC(=O)NC1CCN([C@@H]2CCC[C@@H](Nc3ncc(Cl)c(-c4c[nH]c5ccccc45)n3)C2)CC1`: the IC50 in test [1] was < 100 nM; in test [2], < 500 nM.
Turning to `C=CC(=O)Nc1ccc2c(c1)CN([C@@H]1CCCC(Nc3ncc(Cl)c(-c4c[nH]c5ccccc45)n3)C1)C2` (some centres unmarked), the IC50 is < 100 nM in test [1], < 500 nM in test [2] and 500 to 5000 nM in test [4].
Take `C=CCC(=O)N1CCC(CNC2CCCC(Nc3ncc(Cl)c(-c4c[nH]c5ccccc45)n3)C2)CC1` (centres unmarked): the IC50 is < 100 nM in test [1] and < 500 nM in test [4].
On to `C=CC(=O)N1CCN([C@H]2CCC[C@@H](Nc3ncc(Cl)c(-c4cnn5ccccc45)n3)C2)CC1`, for which the IC50 in test [1] was < 100 nM; in test [2] it was < 500 nM; in test [4], > 5000 nM.
In the same order, the values of `CN(C)C/C=C/C(=O)N1CCC(C(=O)N[C@H]2CCC[C@@H](Nc3ncc(C4CC4)c(-c4c[nH]c5ccccc45)n3)C2)CC1` are 100 to 1000 nM, < 500 nM and 500 to 5000 nM.
On to `C=CC(=O)N1CC2(CCN([C@H]3CCC[C@@H](Nc4ncc(Cl)c(-c5c[nH]c6ccccc56)n4)C3)C2)C1`, for which the results for the IC50 in test [2] and in test [3] were < 500 nM and 100 to 1000 nM, respectively.
The matching figures for `C=CC(=O)N1CCC(CN[C@@]2(C)CCC[C@@H](Nc3ncc(Cl)c(-c4cnn5ccccc45)n3)C2)CC1`: < 500 nM and < 100 nM.
In the same order, the values of `C=CC(=O)N1CCN([C@H]2CCC[C@@H](Nc3ncc(Cl)c(-c4c[nH]c5cccc(Cl)c45)n3)C2)CC1` are < 500 nM and 100 to 1000 nM.
In the same order, the values of `C=CC(=O)N1CCN([C@H]2CCC[C@@H](Nc3ncc(Cl)c(-c4coc5ccccc45)n3)C2)CC1` are < 500 nM and < 100 nM.
With `C=CC(=O)N1CCCC(CN[C@H]2CCC[C@@H](Nc3ncc(Cl)c(-c4c[nH]c5ccccc45)n3)C2)C1` (some centres unmarked), the IC50 in test [1] is 100 to 1000 nM; in test [2], < 500 nM; in test [3], < 100 nM.
With `COC/C=C/C(=O)N1CCN([C@H]2CCC[C@@H](Nc3ncc(Cl)c(-c4c[nH]c5ccccc45)n3)C2)CC1`, the IC50 is < 500 nM in test [2] and 100 to 1000 nM in test [3].
As for `C=CC(=O)N1CCC(CN(C)[C@H]2CCC[C@@H](Nc3ncc(Cl)c(-c4cnn5ccccc45)n3)C2)CC1`, the values for the IC50 in test [1], in test [2] and in test [4] were 100 to 1000 nM, < 500 nM and < 500 nM, respectively.
Consider `C=CC(=O)N1CCC(C(=O)N[C@H]2CCC[C@@H](Nc3ncc(C4CC4)c(-c4c[nH]c5ccccc45)n3)C2)CC1`, for which the IC50 is 100 to 1000 nM in test [1], 500 to 5000 nM in test [2] and < 500 nM in test [4].
With `CN(C)C/C=C/C(=O)N1CCC(N2CCC[C@@H](Nc3ncc(Cl)c(-c4c[nH]c5ccccc45)n3)C2)CC1`, the values for the IC50 in test [2] and in test [3] were < 500 nM and < 100 nM, respectively.
The matching figures for `CN(C)C/C=C/C(=O)N1CCN([C@H]2CCC[C@@H](Nc3ncc(Cl)c(-c4c[nH]c5ccccc45)n3)C2)CC1C(F)(F)F` (some centres unmarked): < 500 nM and < 100 nM.
